Results: patent US8138174B2, “Compounds with a combination of cannabinoid CB1 antagonism and serotonin reuptake inhibition” (Solvay Pharmaceuticals B.V., priority 2007, dated 2012)

The chains behind the UniProt entries cited, without tags or fusion partners.
UniProt P31652, whole entry: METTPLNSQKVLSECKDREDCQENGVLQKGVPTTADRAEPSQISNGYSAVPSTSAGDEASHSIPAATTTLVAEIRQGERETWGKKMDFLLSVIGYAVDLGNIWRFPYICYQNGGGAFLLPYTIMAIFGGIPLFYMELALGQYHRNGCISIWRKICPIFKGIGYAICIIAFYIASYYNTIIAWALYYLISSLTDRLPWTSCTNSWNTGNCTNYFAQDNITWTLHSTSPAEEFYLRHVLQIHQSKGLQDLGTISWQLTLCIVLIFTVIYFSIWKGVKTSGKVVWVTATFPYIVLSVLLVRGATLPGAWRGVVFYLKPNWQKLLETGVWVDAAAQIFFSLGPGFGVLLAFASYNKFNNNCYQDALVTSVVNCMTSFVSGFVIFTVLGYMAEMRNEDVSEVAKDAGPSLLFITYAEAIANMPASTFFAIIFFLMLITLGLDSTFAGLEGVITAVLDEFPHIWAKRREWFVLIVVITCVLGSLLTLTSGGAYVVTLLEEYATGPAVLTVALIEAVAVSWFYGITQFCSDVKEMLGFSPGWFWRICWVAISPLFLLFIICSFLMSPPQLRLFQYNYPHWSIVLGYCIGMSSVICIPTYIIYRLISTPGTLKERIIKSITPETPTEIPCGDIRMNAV

Molecular target: T1, serotonin reuptake sites (Rattus norvegicus, UniProt P31652)
T1 construct: from tissue
Assay: In vitro affinity for serotonin reuptake sites ([3H]-paroxetine binding, Habert 1985)

Row | SMILES | Ki
1 | CNCCC=C1c2ccccc2CCc2ccccc21 | 12.6 nM
2 | Fc1ccc([C@@H]2CCNC[C@H]2COc2ccc3c(c2)OCO3)cc1 | 0.2 nM
